# Source: PubChem BioAssay AID624263 (National Center for Advancing Translational Sciences (NCATS), 2012)
# Only a part is listed here, and it is no random draw. Active and inactive are the calls of the source. Calls come from the whole dose curve; as a rule, active = well fitted activation curve with a large enough effect; inconclusive = small, poorly fitted or top-dose-only effect; inactive = flat fitted curve, though single readings scatter; cell line not stated here. Entries that show only a call come without a potency.
# Test: A Quantitative High throughput Screen to Identify Chemical Modulators of PINK1 Expression; note: nearly all actives have a fitted effect of over 65% in size
# Details: PINK1 immunofluorescence, high-content cytometry, 24 h; series mostly up to 76.6 µM
# Potency is the fitted concentration of half-maximal effect.
row,Compound,Potency
1,CN1CCCCC1COC(=O)C1(O)c2ccccc2CCc2ccccc21 (centres undefined),inactive
2,O=P1(Nc2ncccn2)COc2ccccc2OC1,inactive
3,COP(=O)(OC)N1CC1c1ccccc1 (centres undefined),inactive
4,CCCCOc1ccc(C(=O)NCC2(N3CCCCC3)CCCCC2)cc1OC,inactive
5,Cc1cc(SC(NC(=O)c2ccccc2)C(Cl)(Cl)Cl)nc(C(C)C)n1 (centres undefined),inactive
6,O=C(O)C(=O)c1ccc(N(CCCl)CCCl)cc1.c1ccc(Nc2ccccc2)cc1,inactive
7,CCOC(=O)Nc1ccc([As](=O)(O)O)c(O)c1,inactive
8,CC1CCNP(=O)(N(CCCl)CCCl)O1 (centres undefined),inactive
9,O=P(Nc1ccccn1)(c1cccc2ccccc12)c1cccc2ccccc12,inactive
10,Cc1cc(SC(NC=O)C(Cl)(Cl)Cl)ncn1 (centres undefined),inactive
11,COc1ccccc1OP(C)(=O)Nc1ccccc1 (centres undefined),inactive
12,CP(=O)(Nc1ccccc1Br)Oc1ccccc1 (centres undefined),inactive
13,O=[N+]([O-])c1ccc(Nc2ccc(Oc3ccc([N+](=O)[O-])cc3[N+](=O)[O-])cc2)c([N+](=O)[O-])c1,inactive
14,CP(=S)(Nn1cnnc1)Oc1ccccc1 (centres undefined),inactive
15,CCOC(=O)Nc1cccc([As](=O)(O)O)c1,inactive
16,O=C(COc1ccccc1)OC1CN2CCC1CC2 (centres undefined),inactive
17,CCc1ccc(OP(C)(=O)N2CCN(c3ccc([N+](=O)[O-])cc3)CC2)cc1 (centres undefined),inactive
18,O=C(Nc1ccncc1[N+](=O)[O-])c1ccc([N+](=O)[O-])cc1[N+](=O)[O-],inactive
19,Cc1cc(C)cc(OP(C)(=O)Nc2ccc(SC(F)(F)F)cc2)c1 (centres undefined),inactive
20,Cc1cccc(C)c1OP(C)(=O)Nc1ccc(SC(F)(F)F)cc1 (centres undefined),inactive
21,CP(=O)(Nc1ccc(SC(F)(F)F)cc1)Oc1ccc(Cl)cc1 (centres undefined),inactive
22,CP(=O)(Oc1ccccc1)OC(c1ccccc1)C(F)(F)F (centres undefined),inactive
23,COC(=O)C1(C)COP(=O)(N2CCCC2)OC1 (centres undefined),inactive
24,CCC(C)N(CC(C)C)C(=S)SC(NC(C)=O)C(Cl)(Cl)Cl (centres undefined),inactive

row,Compound,Potency
1,CCOP(=O)(Nc1cccc2cccnc12)OCC,inactive
2,O=C(OC1CN2CCC1CC2)c1cccc([N+](=O)[O-])c1 (centres undefined),inactive
3,CCOP(C)(=S)SCC(=O)NC(C)C(=O)O (centres undefined),inactive
4,CCOC(=O)c1ccc(NC(=O)C(C)(CCl)SC)cc1 (centres undefined),inactive
5,CCOC(=O)c1ccc(NP(C)(=O)Oc2ccc(OC)cc2)cc1 (centres undefined),inactive
6,O=[N+]([O-])c1cc([N+](=O)[O-])c(O)c([N+](=O)[O-])c1.c1ccc(Oc2ccncc2)cc1,inactive
7,O=P1(N(CCCl)CCCl)OCCCN1CCCl (centres undefined),inactive
8,O=P1(N(CCCl)CCCl)Nc2ccccc2N1,inactive
9,COc1ccc2nc(NP(=O)(c3ccccc3)c3ccccc3)sc2c1,inactive
10,COc1cc(I)ccc1[As](=O)(O)O,inactive
11,Cc1c2c(nc3ccccc13)SC(C(Cl)Cl)C2 (centres undefined),inactive
12,O=C(OC1CN2CCC1CC2)C12CC3CC(CC(C3)C1)C2 (centres undefined),inactive
13,CCN(CC)CCCOC(=O)C(O)(c1ccccc1)c1ccccc1,inactive
14,Cc1cc(=O)[nH]c(N[N+](=O)[O-])n1,inactive
15,O=[N+]([O-])c1cc(Oc2ccc([N+](=O)[O-])cc2C(F)(F)F)cc([N+](=O)[O-])c1,inactive
16,COc1ccc(N/C(=N/P(=O)(N2CCOCC2)N2CCOCC2)N2CCOCC2)cc1,inactive
17,COc1ccccc1-c1ccccn1.O=[N+]([O-])c1cc([N+](=O)[O-])c(O)c([N+](=O)[O-])c1,inactive
18,[N-]=[N+]=NC1CCCCC1NC(=O)c1cc([N+](=O)[O-])cc([N+](=O)[O-])c1 (centres undefined),inactive
19,Cc1ccc(OP(=O)(Nc2ccc([N+](=O)[O-])cn2)Oc2ccc(C)cc2)cc1,inactive
20,CC(C)(C)c1ccc(OP(C)(=O)Nc2ccc(SC(F)(F)F)cc2)cc1 (centres undefined),inactive
21,ClCCN(CCCl)c1ccc(CC2C=CC=C2)cc1,inactive
22,Cc1cccc(C)c1OP(C)(N)=O (centres undefined),inactive
23,O=[N+]([O-])c1ccc2c(c1)C=Nc1ccccc1O2,inactive
24,Cc1ccc2nc3c(c(C)c2c1)CC(C(Cl)Cl)S3 (centres undefined),inactive

row,Compound,Potency
1,O=[N+]([O-])c1cc([N+](=O)[O-])c(Nc2cccnc2)c([N+](=O)[O-])c1,active: 39.8 µM
2,C[As](=O)(O)c1cccc(C(=O)O)c1,inactive
3,O=[As](O)(c1ccc(O)cc1)c1ccccc1O,inactive
4,O=[N+]([O-])c1ccc(-c2cc([N+](=O)[O-])c(O)c([N+](=O)[O-])c2)cc1,inactive
5,COc1cc(C(=O)NCC2(N3CCOCC3)CCCCC2)ccc1OCC(C)C,inactive
6,COc1ccccc1OP(C)(=O)Nc1cc(Cl)ccc1C (centres undefined),inactive
7,CC(C)NC(=O)NP(=O)(Oc1ccccc1)Oc1ccccc1,inactive
8,O=C(OC1CN2CCC1CC2)c1cccc2[nH]cnc12 (centres undefined),inactive
9,CCN(CC)C(=S)SC(NC=O)C(Cl)(Cl)Cl (centres undefined),inactive
10,COc1ccc(OP(C)(=O)Nc2cccc(F)c2)cc1 (centres undefined),inactive
11,O=[N+]([O-])c1cc([N+](=O)[O-])c(-c2ccn[nH]2)s1,inactive
12,Cc1cc(C)cc(OP(C)(N)=O)c1 (centres undefined),inactive
13,CCOC(=O)c1ccc(NP(C)(=O)Oc2ccccc2)cc1 (centres undefined),inactive
14,ClCCSc1nnc(-c2cccnc2)o1,inactive
15,O=Cc1ccc(NCCCl)cc1,inactive
16,COc1ccccc1OP(C)(=O)Nc1ccc(C)cc1 (centres undefined),inactive
17,COC(=O)C1(C)COP(=O)(N2CCCCCC2)OC1 (centres undefined),inactive
18,CC(C)c1ccc(OP(=O)(Nc2ccccn2)Oc2ccccc2F)cc1 (centres undefined),inactive
19,Cc1ccc(NP(C)(=O)Oc2ccccc2)c(C)c1 (centres undefined),inactive
20,COc1ccc(OP(C)(=O)Nc2ccccc2Br)cc1 (centres undefined),inactive
21,Cc1cc(SC(NC(=O)c2ccc(F)cc2)C(Cl)(Cl)Cl)ncn1 (centres undefined),inactive
22,CCOP(=O)(Nc1ccccc1)OCC,inactive
23,COc1ccccc1OP(C)(=O)Nc1ccc(C)c(C)c1 (centres undefined),inactive
24,Cc1ccc(NP(=O)(Oc2ccccc2F)Oc2ccccc2F)nc1,inactive

row,Compound,Potency
1,CN(C(=O)Cc1ccc(Cl)c(Cl)c1)[C@H]1CCCC[C@@H]1N1CCCC1,inactive
2,Cc1cc(C)cc(OP(C)(=O)Nc2cccc(C(F)(F)F)c2)c1 (centres undefined),inactive
3,CN(C)P(=O)(N(C)C)n1c(Nc2ccccc2)nnc1-c1ccccc1,inactive
4,CC(=O)Nc1ccc([As](=O)(O)O)cc1,inactive
5,O=C(O)c1ccccc1[As](=O)(O)O,inactive
6,CCCC1OP(N)(=O)OCC1CC (centres undefined),inactive
7,Nc1cccc2ccc([As](=O)(O)O)cc12,inactive
8,CCCCCCCCCCCCCCCC1C[N+](C)(C)CCOP(C)(=O)O1 (centres undefined),inactive
9,CP(=O)(Nc1ccc(Cl)cc1Cl)Oc1ccccc1 (centres undefined),inactive
10,CP(=O)(OCCOc1ccccc1)OCCOc1ccccc1,inactive
11,CCN(N=Nc1nonc1N)c1nonc1N,inactive
12,CN1CCCC(OC(=O)C(c2ccccc2)c2ccccc2)C1 (centres undefined),inactive
13,Clc1ccc(Cl)c(NC2=NCC(CBr)S2)c1 (centres undefined),inactive
14,CN(C)CCOC(=O)C(O)(c1ccccc1)C1CCCC1 (centres undefined),inactive
15,COc1ccccc1OP(=O)(Nc1ccc(C)cn1)Oc1ccccc1OC,inactive
16,Cc1ccc(OP(=O)(Nc2nccs2)Oc2ccc(C)cc2)cc1,inactive
17,CN(C(=O)Cc1ccc(Cl)c(Cl)c1)[C@H]1CCCC[C@H]1N1CCCC1,inactive
18,COc1ccccc1OP(C)(=O)Nc1ccc(Br)cc1 (centres undefined),inactive
19,Cc1ccc(N/C(=N/P(=O)(N2CCOCC2)N2CCOCC2)N2CCOCC2)cc1,inactive
20,NC(=O)c1cc([N+](=O)[O-])cc([N+](=O)[O-])c1N,inactive
21,O=[N+]([O-])c1cc2c(cc1[N+](=O)[O-])OCO2,inactive
22,CCc1ccc(OP(C)(=O)O)cc1,inactive
23,O=[N+]([O-])C1C(O)C(O)C([N+](=O)[O-])C(O)C1O (centres undefined),inactive
24,CP(=O)(Nc1ccccn1)Oc1ccccc1 (centres undefined),inactive

row,Compound,Potency
1,COc1ccccc1OP(C)(=O)Nc1ccc(C)cc1C (centres undefined),inactive
2,Oc1ccccc1CNc1ccccn1,inactive
3,O=C(NC(Sc1ccncn1)C(Cl)(Cl)Cl)c1ccccc1 (centres undefined),inactive
4,Cc1c(NP(C)(=O)Oc2ccc(C(C)C)cc2)c(=O)n(-c2ccccc2)n1C (centres undefined),inactive
5,Nc1cc(N)c2nonc2c1[N+](=O)[O-],inactive
6,CC(C)CC(=O)NC(Sc1ccc(Cl)cc1)C(Cl)(Cl)Cl (centres undefined),inactive
7,O=[N+]([O-])c1cc([N+](=O)[O-])c(Nc2ccccn2)c([N+](=O)[O-])c1,inactive
8,CP(=O)(Oc1ccccc1)N1CCOC1=O (centres undefined),inactive
9,Cc1ccc(NP(=O)(Oc2ccccc2)Oc2ccccc2)nc1,inactive
10,CCc1ccc(OP(C)(=O)Nc2cccnc2)cc1 (centres undefined),inactive
11,CCc1nc2c(n1)c1c(non1O)c1c2no[n+]1[O-],inactive
12,O=[N+]([O-])c1cc([N+](=O)[O-])c(CCNc2ccccc2)c([N+](=O)[O-])c1,inactive
13,O=[N+]([O-])c1cccc2n[nH]nc12,inactive
14,CC(=O)N1C2C3N(C(C)=O)C1C1N(C(C)=O)C(C(N1C(C)=O)N3C(C)=O)N2C(C)=O,inactive
15,COc1ccccc1OP(C)(=O)Nc1c(C)n(C)n(-c2ccccc2)c1=O (centres undefined),inactive
16,O=C(OCCCN1CCCC1)C(O)(c1ccccc1)C1CCCCC1 (centres undefined),inactive
17,CCN(CC)CC(O)COC(=O)C(O)(c1ccccc1)C1CCCCC1 (centres undefined),inactive
18,COc1ccc(OP(C)(=O)Nc2ccc(Br)cc2)cc1 (centres undefined),inactive
19,COc1ccc(C2=NCC(CBr)S2)cc1 (centres undefined),inactive
20,CC1CCN(C(=O)Oc2c(Cl)cc(Cl)c3cccnc23)CC1,inactive
21,c1cc(-c2nn[nH]n2)ccc1-c1nn[nH]n1,inactive
22,CC(C)c1nc(Nc2ccccc2)n(P(=O)(N(C)C)N(C)C)n1,inactive
23,CN(C)C(=O)c1c([N+](=O)[O-])cc([N+](=O)[O-])cc1[N+](=O)[O-],inactive
